Target: human orexin-2 receptor (Homo sapiens (Human), UniProt O43614)
Assay: In vitro intracellular calcium measurements (FLIPR), antagonism of orexin-A response, OX2
Format: cell-based
Conditions: CHO cells expressing human orexin-2 receptor; 3 nM orexin-A; compound incubation time 120 min

The chains behind the UniProt entries cited, without tags or fusion partners.
UniProt O43614, whole entry: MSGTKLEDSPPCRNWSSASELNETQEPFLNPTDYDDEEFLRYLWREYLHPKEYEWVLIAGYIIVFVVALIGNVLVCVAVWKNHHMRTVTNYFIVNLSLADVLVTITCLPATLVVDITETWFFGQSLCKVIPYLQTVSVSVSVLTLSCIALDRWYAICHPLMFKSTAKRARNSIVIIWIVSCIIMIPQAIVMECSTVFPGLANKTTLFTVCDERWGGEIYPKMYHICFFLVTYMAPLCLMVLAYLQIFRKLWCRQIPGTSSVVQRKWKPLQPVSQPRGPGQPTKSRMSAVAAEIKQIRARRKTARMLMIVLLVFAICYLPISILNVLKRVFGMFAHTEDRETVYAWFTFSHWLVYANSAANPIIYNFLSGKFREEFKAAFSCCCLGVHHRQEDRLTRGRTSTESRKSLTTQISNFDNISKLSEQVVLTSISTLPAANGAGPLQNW

Row | Compound | IC50
1 | COc1ccc2[nH]cc(CCn3cc(NC(=O)c4ncoc4-c4cc(C)no4)cn3)c2c1 [Example 144, 5-(3-Methyl-isoxazol-5-yl)-oxazole-4-carboxylic acid {1-[2-(5-methoxy-1H-indol-3-yl)-ethyl]-1H-pyrazol-4-yl}-amide] | 0.017 µM
2 | COc1ccc2[nH]cc(CCn3cc(NC(=O)c4ncoc4-c4ccon4)cn3)c2c1 [Example 145, 5-lsoxazol-3-yl-oxazole-4-carboxylic acid {1-[2-(5-methoxy-1H-indol-3-yl)-ethyl]-1H-pyrazol-4-yl}-amide] | 0.053 µM

Reference: US9303023B2, “Pyrazole and imidazole derivatives useful as orexin antagonists” (ACTELION PHARMACEUTICALS LTD., priority 2011, dated 2016)
